Results as given in PubChem BioAssay AID1471 (National Center for Advancing Translational Sciences (NCATS), 2008).
“And” between values parts separate entries of the source, which are not always exact repeats. Identical values can stand only once. The list shows a part of the results, in another mix than the full data. The source made the active and inactive calls. Calls follow the shape of the dose curve; as a rule, active = well fitted activation curve with a large enough effect; inconclusive = small, poorly fitted or top-dose-only effect; inactive = no such curve, though single readings can be large or run the other way.

Assay: qHTS Multiplex Assay to Identify Dual Action Probes in a Cell Model of Huntington: Cytoprotection (ATP);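 also: toxic huntingtin expression switched on by the ecdysone agonist tebufenozide; % of control where 0% means no effect; nearly all actives have a fitted effect of over 45% in size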
Conditions: PC12 HTT-Q103 induced, ATP luminescence, 40 h; at 56.4 µM (top of the series)
Text: NIH Chemical Genomics Center [NCGC]
NIH Molecular Libraries Probe Production centers Network [MLPCN]
Assay Submitter (PI): Wei Zheng
Huntington's disease is a neurodegenerative disorder caused by a trinucleotide repeat expansion in Exon 1 of the Huntingtin gene. The CAG trinucleotide encodes glutamine and polyglutamine expansions cause cell death in selective areas of the brain. Huntington polyglutamine repeats have the tendency to form aggregates which are observable in later stages of the disease. The exact nature of the aggregates, whether toxic, protective, or insignificant, is unclear.
A stable PC12 cell line containing a gene fusion of Exon 1 of the Huntingtin gene linked to GFP under the control of the inducible ecdysone promoter were used as the cell-based model of Huntington Disease for high throughput screening. Exon 1 of the Huntingtin gene contained an expansion of 103 polyglutamines (Q103) which, when expressed, caused cell death and distinct, bright GFP aggregates. […] The cell death were quantified with a measurement of ATP content in the cells. […]
We optimized this assay in a homogeneous 1536 well format. A quantitative high throughput screen (qHTS) was conducted on the PC12 cells which were induced to express the toxic fusion construct. Small molecules which prevented cell death were identified by using a luminescent ATP quantification method (Perkin Elmer's ATPlite). […]
For `O=[N+]([O-])C(Cl)(Cl)Cl`, the cytoprotection (ATP increase) was inactive: -7.93%.
With `CN(CCCl)CCCl` the cytoprotection (ATP increase) was inactive: -62.9% and inactive: -269%.
